Where two headings read alike, the source gives them in different places. Marks after values point to notes of the source that are not given here.
Conditions: for MCH % Diff: Day 15, vs Group 1
[1] = female rats, Group 3, 3.75/2.5 mg/kg/wk oral, Day 15, vs vehicle Group 1
[2] = female rats, Group 4, 4.69/2 mg/kg/wk oral, Day 15, vs vehicle Group 1
[3] = male rats, Group 2, 3 mg/kg/wk oral, Day 15
[4] = male rats, Group 2, 3 mg/kg/wk oral, Day 15, vs vehicle Group 1
[5] = male rats, Group 3, 3.75/2.5 mg/kg/wk oral, Day 15, vs vehicle Group 1

SMILES: CCC1(O)C(=O)OCc2c1cc1n(c2=O)Cc2cc3cc4c(cc3nc2-1)OCO4 (stereo not drawn) [FL118]
- K, potassium, % Diff [1]: −4.8%
- MCH, mean corpuscular hemoglobin, % Diff [1]: 1.8%
- MCHC, mean corpuscular hemoglobin concentration, % Diff [1]: −1.6%
- MCV, mean corpuscular volume, % Diff [1]: 3.3%
- MPV, mean platelet volume, % Diff [1]: 2.7%
- Na, sodium, % Diff [1]: 1%
- PLT, platelet count, % Diff [1]: 18%
- RBC, red blood cell, % Diff [1]: −6.90%
- RDW, RBC distribution width, % Diff [1]: 19.2%
- TCHO, total cholesterol, % Diff [1]: 12.47%
- TG, triglyceride, % Diff [1]: −1.54%
- TP, total protein, % Diff [1]: −1.1%
- UREA, urea, % Diff [1]: −22.22%
- WBC, white blood cell, % Diff [1]: −3.78%
- #BASO, basophils, absolute, % Diff [2]: −50.00%
- #EOS, eosinophils, absolute, % Diff [2]: −32.35%
- #LYMP, lymphocytes, absolute, % Diff [2]: −37.76%
- #MONO, monocytes, absolute, % Diff [2]: −12.33%
- #NEUT, neutrophils, absolute, % Diff [2]: 9.22%
- #RET, reticulocytes, absolute, % Diff [2]: 72.0%
- % BASO, basophils, percent, % Diff [2]: 16.7%
- % EOS, eosinophils, percent, % Diff [2]: 4.2%
- % LYMP, lymphocytes, percent, % Diff [2]: −6.3%
- % MONO, monocytes, percent, % Diff [2]: 46.9%
- % NEUT, neutrophils, percent, % Diff [2]: 58.8%
- % RET, reticulocytes, percent, % Diff [2]: 96.48%
- ALB, albumin, % Diff [2]: −2.7%
- ALP, alkaline phosphatase, % Diff [2]: −16%
- ALT, alanine aminotransferase, % Diff [2]: 122%
- AST, aspartate aminotransferase, % Diff [2]: 106%
- BIL-T, total bilirubin, % Diff [2]: 54.23%
- CK, creatine kinase, % Diff [2]: 6%
- CRE, creatinine, % Diff [2]: 2%
- Ca, calcium, % Diff [2]: −3.66%
- Cl, chloride, % Diff [2]: 2%
- GLB, globulin, % Diff [2]: −7.2%
- HCT, hematocrit, % Diff [2]: −3.4%
- HGB, hemoglobin, % Diff [2]: −3.4%
- K, potassium, % Diff [2]: 1.8%
- MCH, mean corpuscular hemoglobin, % Diff [2]: 3.2%
- MCHC, mean corpuscular hemoglobin concentration, % Diff [2]: 0.1%
- MCV, mean corpuscular volume, % Diff [2]: 3.0%
- MPV, mean platelet volume, % Diff [2]: 0.3%
- Na, sodium, % Diff [2]: 1%
- P, inorganic phosphorus, % Diff [2]: −8.41%
- PLT, platelet count, % Diff [2]: 16%
- RBC, red blood cell, % Diff [2]: −6.04%
- RDW, RBC distribution width, % Diff [2]: 26.3%
- TCHO, total cholesterol, % Diff [2]: −9.02%
- TG, triglyceride, % Diff [2]: 10.00%
- TP, total protein, % Diff [2]: −4.4%
- UREA, urea, % Diff [2]: 18.06%
- WBC, white blood cell, % Diff [2]: −33.69%
- sGLU, glucose, % Diff [2]: −19.47%
- ALB, albumin, Mean [3]: 33.3 g/L
- ALP, alkaline phosphatase, Mean [3]: 146 U/L
- ALT, alanine aminotransferase, Mean [3]: 42 U/L
- AST, aspartate aminotransferase, Mean [3]: 100 U/L
- BIL-T, total bilirubin, Mean [3]: 2.14
- CK, creatine kinase, Mean [3]: 260* U/L
- CRE, creatinine, Mean [3]: 19 µmol/L
- Ca, calcium, Mean [3]: 2.44 mmol/L
- GLB, globulin, Mean [3]: 22.1 g/L
- K, potassium, Mean [3]: 4.9 mmol/L
- Na, sodium, Mean [3]: 143 mmol/L
- P, inorganic phosphorus, Mean [3]: 2.39 mmol/L
- TCHO, total cholesterol, Mean [3]: 2.18*** mmol/L
- TG, triglyceride, Mean [3]: 0.36 mmol/L
- TP, total protein, Mean [3]: 55.5 g/L
- UREA, urea, Mean [3]: 6.25 mmol/L
- sGLU, glucose, Mean [3]: 10.72 mmol/L
- ALB, albumin, % Diff [4]: −3.2%
- ALP, alkaline phosphatase, % Diff [4]: −9%
- ALT, alanine aminotransferase, % Diff [4]: 19%
- AST, aspartate aminotransferase, % Diff [4]: −27%
- BIL-T, total bilirubin, % Diff [4]: 25.44%
- CK, creatine kinase, % Diff [4]: −51%
- CRE, creatinine, % Diff [4]: −2%
- Ca, calcium, % Diff [4]: 1.66%
- Cl, chloride, % Diff [4]: 1%
- GLB, globulin, % Diff [4]: −6.0%
- K, potassium, % Diff [4]: −2.0%
- Na, sodium, % Diff [4]: 1%
- P, inorganic phosphorus, % Diff [4]: −4.02%
- TCHO, total cholesterol, % Diff [4]: 69.94%
- TG, triglyceride, % Diff [4]: 18.54%
- TP, total protein, % Diff [4]: −4.3%
- UREA, urea, % Diff [4]: −4.56%
- sGLU, glucose, % Diff [4]: −1.42%
- MCH % Diff (male rats, Group 2, 3 mg/kg/wk): −3.4%
- ALB, albumin, % Diff [5]: −1.0%
- ALP, alkaline phosphatase, % Diff [5]: −30%
- ALT, alanine aminotransferase, % Diff [5]: 34%
- AST, aspartate aminotransferase, % Diff [5]: −24%
- BIL-T, total bilirubin, % Diff [5]: 8.21%
- CK, creatine kinase, % Diff [5]: −44%
- CRE, creatinine, % Diff [5]: −3%
- Ca, calcium, % Diff [5]: 0.08%
- Cl, chloride, % Diff [5]: 2%
- GLB, globulin, % Diff [5]: −6.5%
- K, potassium, % Diff [5]: 0.4%
- Na, sodium, % Diff [5]: 0%
- P, inorganic phosphorus, % Diff [5]: −4.34%
- TCHO, total cholesterol, % Diff [5]: 34.42%
- TG, triglyceride, % Diff [5]: 10.60%
- TP, total protein, % Diff [5]: −3.2%
- UREA, urea, % Diff [5]: −13.45%
- sGLU, glucose, % Diff [5]: −6.38%
- MCH % Diff (male rats, Group 3, 3.75/2.5 mg/kg/wk): −4.1%
- GLB, globulin, % Diff (male rats, Group 4, 4.69/2 mg/kg/wk oral, Day 15, N 2, vs vehicle Group 1): −39.2%
- MCH % Diff (male rats, Group 4, 4.69/2 mg/kg/wk): −1.7%

— US20250312469A1 (CANGET BIOTEKPHARMA, priority 2024, published 2025)
